The subject of test [1] is d-U937 cells. Kind of test: LPS-induced TNFα/IL-8 release in d-U937 cells. The format is cell-based, human. As to conditions: LPS-stimulated d-U937 cells. As to the method: U937 cells, a human monocytic cell line, are differentiated to macrophage-type cells by incubation with phorbol myristate acetate (PMA; 100 ng/mL) for 48 to 72 hr. Cells are pre-incubated with final concentrations of test compound for 2 hr and are then stimulated with 0.1 μg/mL of LPS (from E. Coli: O111:B4, Sigma) for 4 hr. The supernatant is collected for determination of TNFα and IL-8 concentrations by sandwich ELISA (Duo-set, R&D systems). The inhibition of TNFα production is calculated as a percentage of that achieved by 10 μg/mL of BIRB796 at each concentration of test compound by comparison against vehicle control. The relative 50% effective concentration (REC50) is determined from the resultant concentration-response curve. The inhibition of IL-8 production is calculated at each concentration of test compound by comparison with vehicle control. The 50% inhibitory concentration (IC50) is determined from the resultant concentration-response curve.

Sequences of proteins named here, by UniProt entry; tags and fusion partners are left off. Residues count along the entry.
UniProt P12931, 2-536 limits assumed: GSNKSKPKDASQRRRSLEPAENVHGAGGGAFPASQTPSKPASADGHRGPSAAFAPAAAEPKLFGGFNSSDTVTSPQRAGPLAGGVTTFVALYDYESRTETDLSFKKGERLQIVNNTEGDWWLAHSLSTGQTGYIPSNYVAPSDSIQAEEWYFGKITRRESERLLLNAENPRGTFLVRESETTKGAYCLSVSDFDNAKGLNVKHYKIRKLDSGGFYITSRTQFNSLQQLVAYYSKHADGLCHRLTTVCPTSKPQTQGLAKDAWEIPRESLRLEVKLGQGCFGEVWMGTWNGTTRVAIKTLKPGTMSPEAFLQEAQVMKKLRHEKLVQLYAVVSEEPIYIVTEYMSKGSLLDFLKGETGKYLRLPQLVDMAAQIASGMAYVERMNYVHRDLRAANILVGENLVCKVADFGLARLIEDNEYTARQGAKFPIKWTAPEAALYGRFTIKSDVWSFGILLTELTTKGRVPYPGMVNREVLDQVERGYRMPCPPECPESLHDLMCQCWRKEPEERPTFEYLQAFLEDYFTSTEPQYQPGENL
UniProt P49840, whole entry: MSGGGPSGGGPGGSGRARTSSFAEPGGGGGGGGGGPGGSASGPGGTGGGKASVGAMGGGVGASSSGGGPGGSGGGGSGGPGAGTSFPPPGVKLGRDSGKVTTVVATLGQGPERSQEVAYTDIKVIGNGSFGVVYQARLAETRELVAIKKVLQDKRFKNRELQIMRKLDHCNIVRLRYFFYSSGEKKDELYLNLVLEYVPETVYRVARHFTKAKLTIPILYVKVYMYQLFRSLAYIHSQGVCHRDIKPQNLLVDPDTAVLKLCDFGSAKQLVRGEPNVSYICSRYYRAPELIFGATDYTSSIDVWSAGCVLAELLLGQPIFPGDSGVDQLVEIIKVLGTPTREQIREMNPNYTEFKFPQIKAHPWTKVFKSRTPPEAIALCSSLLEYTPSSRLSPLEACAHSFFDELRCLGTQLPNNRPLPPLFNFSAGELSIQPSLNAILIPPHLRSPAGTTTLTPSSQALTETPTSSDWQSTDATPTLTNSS

The target of test [2] is Syk (Homo sapiens (Human), UniProt P43405). Kind of test: Syk enzyme inhibition (Z-LYTE FRET). The format is biochemical. As to conditions: read-out: IC50 Values for Enzyme Inhibition Syk. As for the experimental part:
(§1) The enzyme inhibitory activities of compounds disclosed herein are determined by FRET using synthetic peptides labelled with both donor and acceptor fluorophores (Z-LYTE, Invitrogen Ltd., Paisley, UK).
(§2) The inhibitory activities of compounds of the invention against c-Src and Syk enzymes (Invitrogen), are evaluated in a similar fashion to that described hereinabove. The relevant enzyme (3000 ng/mL or 2000 ng/mL respectively, 2.5 μL) is incubated with the test compound (either 4 μg/mL, 0.4 μg/mL, 0.04 μg/mL, or 0.004 μg/mL, 2.5 μL each) for 2 hr at RT. The FRET peptides (8 μM, 2.5 μL), and appropriate ATP solutions (2.5 μL, 800 μM for c-Src, and 60 μM ATP for Syk) are then added to the enzymes/compound mixtures and incubated for 1 hr. Development reagent (protease, 5 μL) is added for 1 hr prior to detection in a fluorescence microplate reader (Varioskan® Flash, ThermoFisher Scientific).
(§3) In all cases, the site-specific protease cleaves non-phosphorylated peptide only and eliminates the FRET signal. Phosphorylation levels of each reaction are calculated using the ratio of coumarin emission (donor) over fluorescein emission (acceptor), for which high ratios indicate high phosphorylation and low ratios indicate low phosphorylation levels. […]

The target in test [3] is c-Src (Homo sapiens (Human), UniProt P12931). Kind of test: c-Src enzyme inhibition (Z-LYTE FRET). The format is biochemical. As to conditions: read-out: IC50 Values for Enzyme Inhibition c-Src. As for the experimental part: as §1, §2, §3
For test [4], the system named is PBMCs. Kind of test: LPS-induced TNFα/IL-8 release in PBMC cells. The format is cell-based, human. As to conditions: read-out: IC50 Values for Inhibition of Cytokine Release PBMCs IL-8, LPS-stimulated PBMCs. As to the method: Peripheral blood mononuclear cells (PBMCs) from healthy subjects are separated from whole blood using a density gradient (Lymphoprep, Axis-Shield Healthcare). The PBMCs are seeded in 96 well plates and treated with compounds at the desired concentration for 2 hours before addition of 1 ng/mL LPS (Escherichia Coli 0111:B4 from Sigma Aldrich) for 24 hours under normal tissue culture conditions (37° C., 5% CO2). The supernatant is harvested for determination of IL-8 and TNFα concentrations by sandwich ELISA (Duo-set, R&D systems) and read on the fluorescence microplate reader (Varioskan® Flash, ThermoFisher Scientific). The concentration at 50% inhibition (IC50) of IL-8 and TNFα production is calculated from the dose response curve.

Test [5] deals with GSK 3α (Homo sapiens (Human), UniProt P49840). Kind of test: GSK 3α enzyme inhibition (Z-LYTE FRET). As to conditions: read-out: IC50 Values for Enzyme Inhibition GSK3α. As for the experimental part: as §1
The following two assay variants can be used for determination of GSK 3α inhibition.
The inhibitory activities of compounds of the invention against the GSK 3α enzyme isoform (Invitrogen), are evaluated by determining the level of activation/phosphorylation of the target peptide. The GSK3-α protein (500 ng/mL, 2.5 μL) is mixed with the test compound (2.5 μL at either 4 μg/mL, 0.4 μg/mL, 0.04 μg/mL, or 0.004 μg/mL) for 2 hr at RT. The FRET peptide (8 μM, 2.5 μL), which is a phosphorylation target for GSK3α, and ATP (40 μM, 2.5 μL) are then added to the enzyme/compound mixture and the resulting mixture incubated for 1 hr. Development reagent (protease, 5 μL) is added for 1 hr prior to detection in a fluorescence microplate reader (Varioskan® Flash, ThermoFisher Scientific).
as §3

Test [6] concerns PBMCs. Kind of test: IL-2 and IFN gamma release in CD3/CD28 stimulated PBMC cells. The format is cell-based, human. As to the method: PBMCs from healthy subjects are separated from whole blood using a density gradient (Lymphoprep, Axis-Shield Healthcare). Cells are added to a 96 well plate pre-coated with a mixture of CD3/CD38 monoclonal antibodies (0.3 μg/mL eBioscience and 3 μg/mL BD Pharmingen respectively). Compound at the desired concentration is then added to the wells and the plate left for 3 days under normal tissue culture conditions. Supernatants are harvested and IL-2 and IFN gamma release determined by Sandwich ELISA (Duo-set, R&D System). The IC50 is determined from the dose response curve.

Where two headings read alike, the source gives them in different places.

As for `C#Cc1cc(Nc2nccc(Oc3ccc(NC(=O)Nc4cc([Si](C)(C)C)nn4-c4ccc(C)cc4)c4ccccc34)n2)cc(C(=O)NCCN2CCOCC2)c1`, the IC50 (usually the concentration at which inhibition is half-maximal) in test [1] (read-out: IC50 Values for Inhibition of Cytokine Release dU937 cells IL-8, IL-8) was found to be 3.3 nM; in test [1] (read-out: IC50 Values for Inhibition of Cytokine Release dU937 cells TNFα, TNFα, method describes REC50 relative to BIRB796), 0.5 nM; in test [2], 65 nM; in test [3] it was 25 nM; in test [4], 1.7 nM; in test [5], 12800 nM. The IC50 in test [6] (read-out: IC50 Values for Inhibition of Cytokine Release PBMCs IFNγ, IFNγ) turned out to be 2.3 nM; in test [6] (read-out: IC50 Values for Inhibition of Cytokine Release PBMCs IL-2, IL-2) it was 94.8 nM.

The record behind these values is patent US9783556B2, “Kinase inhibitors” (RESPIVERT LIMITED, priority 2012, dated 2017).
